Assay results from PubChem BioAssay AID651636 (Sanford-Burnham Center for Chemical Genomics, 2012).
The list shows a part of the results, in another mix than the full data. Activity calls are given as the source filed them. Cut-off read from the data, not from the text of the source: active = inhibition above about 38%; inactive = the rest.

Amino acid sequences for entries named in this document (tags omitted).
UniProt P32249, whole entry, looked up: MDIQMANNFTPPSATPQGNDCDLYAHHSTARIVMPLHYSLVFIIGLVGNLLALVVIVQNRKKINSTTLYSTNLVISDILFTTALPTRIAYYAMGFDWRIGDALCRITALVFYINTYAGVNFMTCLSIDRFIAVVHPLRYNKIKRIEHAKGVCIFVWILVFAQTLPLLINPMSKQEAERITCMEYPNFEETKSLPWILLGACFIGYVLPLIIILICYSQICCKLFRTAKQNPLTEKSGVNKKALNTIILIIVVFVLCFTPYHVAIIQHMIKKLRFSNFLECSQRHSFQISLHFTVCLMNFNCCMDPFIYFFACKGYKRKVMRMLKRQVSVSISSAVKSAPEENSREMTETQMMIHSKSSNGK

Each compound was assayed against G-protein coupled receptor 183 (Homo sapiens) (UniProt P32249) (assay: blockers of oxysterol-driven EBI2 arrestin signaling – cell-based, luminescence, 7a,25-OHC stimulation, uHTS, primary screen (AID 651636;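 note: enzyme fragment complementation signal reports receptor beta-arrestin coupling in cells; 0% = agonist plus DMSO wells and 100% = wells without agonist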)). Conditions: EBI2 beta-arrestin recruitment, 7a,25-OHC stimulated, at 5 µM, hits give high values.
`Cc1ccc(OCC(=O)OC2CN3CCC2CC3)cc1` (stereo not given) was tested, and the inhibition was inactive: 4.1%.
With `O=[As](O)(c1cccs1)c1cccs1` the inhibition was inactive: -4.25%.
`NS(=O)(=O)c1cccc(NC(=O)COC(=O)C(O)(c2ccccc2)c2ccccc2)c1` was tested, and the inhibition was inactive: -4.63%.
In the case of `O=P1(Nc2ccc(Br)cn2)COc2ccccc2OC1`, the inhibition is reported as inactive: 2.56%.
In the case of `Nc1cccc([As](=O)(O)c2ccccc2)c1`, the inhibition is reported as inactive: -4.99%.
For `O=P1(Nc2ncccn2)COc2ccccc2OC1`, the inhibition was inactive: -1.93%.
With `Cc1ccc(S(=O)(=O)N(CCCN)CCCc2c(C)nc(N)[nH]c2=O)cc1` the inhibition was inactive: 1.56%.
In the case of `CCCC1OP(=O)(Nc2ccccc2)OCC1CC` (stereo not given), the inhibition is reported as inactive: -1.12%.
With `O=C(/C=C/c1ccccc1)OC1CN2CCC1CC2` (stereo not given) the inhibition was inactive: 19.3%.
With `CN(C)C1(CNC(=O)c2ccc(S(C)(=O)=O)cc2)CCCCC1` the inhibition was inactive: -3.71%.
`Cc1ccc(C(=O)OC2CN3CCC2CC3)cc1` (stereo not given) was tested, and the inhibition was inactive: -15%.
In the case of `CC1CCC(C(C)C)C(OP(=O)(Nc2ccccn2)c2ccccc2)C1` (stereo not given), the inhibition is reported as inactive: 14.7%.
`Cc1nn(-c2ccccc2)c2c1P(=O)(N1CCOCC1)N(C)C(c1ccccc1)=N2` (stereo not given) was tested, and the inhibition was inactive: -7.87%.
In the case of `CC1(CBr)Cn2c(nc3ccccc3c2=O)S1` (stereo not given), the inhibition is reported as inactive: -3.74%.
With `CN(C(=O)Cc1ccc(Cl)c(Cl)c1)[C@@H]1CCCC[C@H]1N1CCCC1` the inhibition was inactive: 3.19%.
For `CC(C)/C=N\N=C(\N)N[N+](=O)[O-]`, the inhibition was inactive: -5.68%.
In the case of `COc1ccccc1CNC(=O)COC(=O)C(O)(c1ccccc1)c1ccccc1`, the inhibition is reported as inactive: 0.45%.
`CC(C)(C)C(=O)NC(Sc1ncccn1)C(Cl)(Cl)Cl` (stereo not given) was tested, and the inhibition was inactive: -10.2%.
In the case of `Clc1n[nH]nc1-c1nn[nH][15n]1`, the inhibition is reported as inactive: -11.8%.
With `O=P1(N(CCCl)CCCl)NCCC(C(F)(F)F)O1` (stereo not given) the inhibition was inactive: -4.77%.
With `CCOP(=O)(Nc1ccc(C)cn1)OCC` the inhibition was inactive: -2.15%.
With `CN(CCCl)Cc1cc(Cl)c(NC2=NCCN2)c(Cl)c1` the inhibition was inactive: 4.51%.
In the case of `CCOP(=O)(NC(=NC(C)c1ccccc1)NC(C)c1ccccc1)OCC` (stereo not given), the inhibition is reported as inactive: -4.4%.
With `CCC1=CC2Cc3nc4ccc(Cl)cc4c(N)c3C(C1)C2` (stereo not given) the inhibition was inactive: -7.52%.
In the case of `O=P1(Nc2ccccn2)COc2ccccc2OC1`, the inhibition is reported as inactive: -8.06%.
`CCOP(=O)(Nc1cccc2ccccc12)OCC` was tested, and the inhibition was inactive: -11.8%.
`COc1cc(C2NCCC3(OCCO3)C2(C)C)cc(OC)c1OC` (stereo not given) was tested, and the inhibition was inactive: -8.31%.
With `CCCOP(=S)(Nc1nc(N)cc(=O)[nH]1)OCCC` the inhibition was inactive: -1.49%.
`Cc1ccc(NCCc2c([N+](=O)[O-])cc([N+](=O)[O-])cc2[N+](=O)[O-])cc1` was tested, and the inhibition was inactive: -0.134%.
For `Nc1cccc2c([As](=O)(O)O)cccc12`, the inhibition was inactive: -0.669%.
`Cc1cccc(OCC(=O)OC2CN3CCC2CC3)c1` (stereo not given) was tested, and the inhibition was inactive: -9.54%.
`O=[As](O)(c1cccc(O)c1)c1cccc(O)c1` was tested, and the inhibition was inactive: -8.99%.
With `CS(=O)(=O)c1ccc(Cl)c(NC(=O)COC(=O)C(O)(c2ccccc2)c2ccccc2)c1` the inhibition was inactive: 0.393%.
In the case of `O=[As](O)(O)c1cccnc1`, the inhibition is reported as inactive: 1.02%.
For `COc1cc(C(=O)NCC2(N3CCOCC3)CCCCC2)cc(Cl)c1OC(C)C`, the inhibition was inactive: 2.81%.
With `O=C(OC1CN2CCC1CC2)c1ccc(Cl)cc1` (stereo not given) the inhibition was inactive: 2.53%.
For `CN(C(=O)Cc1ccc(Cl)c(Cl)c1)[C@H]1CC[C@@]2(CCCO2)C[C@@H]1N1CCCC1`, the inhibition was inactive: 1.31%.
For `O=[N+]([O-])c1ccc2c(c1)nnn2O`, the inhibition was inactive: -11.8%.
For `CN(C)C(=O)c1cc([N+](=O)[O-])cc2c1-c1c(cc([N+](=O)[O-])cc1[N+](=O)[O-])C2=O`, the inhibition was inactive: 24.3%.
For `CCOP1(=S)c2c(C)nn(CCC#N)c2N=C(c2ccc(F)cc2)N1C` (stereo not given), the inhibition was inactive: -0.218%.
In the case of `CN(C(=O)Cc1ccccc1)[C@@H]1CC[C@]2(CCCO2)C[C@H]1N1CCCC1`, the inhibition is reported as inactive: 2.23%.
`N#CCCN(C(=O)COC(=O)C(O)(c1ccccc1)c1ccccc1)c1ccc(F)cc1` was tested, and the inhibition was inactive: -0.919%.
`NC(=O)Nc1ccc([As](=O)(O)O)cc1` was tested, and the inhibition was inactive: -1.22%.
With `O=C(O)COc1ccc([As](=O)(O)O)cc1[N+](=O)[O-]` the inhibition was inactive: 2.76%.
`Nc1ccccc1[As](=O)(O)c1ccccc1` was tested, and the inhibition was inactive: -2.08%.
For `CS(=O)(=O)c1cc([N+](=O)[O-])c2no[n+]([O-])c2c1`, the inhibition was inactive: 1.18%.
With `O=P(Nc1nccs1)(Oc1ccccc1)Oc1ccccc1` the inhibition was inactive: 4.01%.
For `O=P(Nc1nccs1)(c1ccccc1)c1nc2ccccc2s1` (stereo not given), the inhibition was inactive: -5.97%.
For `CCOP1(=S)c2c(C)nn(CCC#N)c2N=C(c2ccccc2F)N1C` (stereo not given), the inhibition was inactive: -10.7%.
With `O=[N+]([O-])c1cc([N+](=O)[O-])c(-c2ccn[nH]2)s1` the inhibition was inactive: 0.706%.
In the case of `CC(C)NC(=O)NP(=O)(Oc1ccccc1)Oc1ccccc1`, the inhibition is reported as inactive: -2.13%.
`CCN(CC)C(=S)SC(NC=O)C(Cl)(Cl)Cl` (stereo not given) was tested, and the inhibition was inactive: -4.25%.
`O=C(OC1CN2CCC1CC2)c1cccc2[nH]cnc12` (stereo not given) was tested, and the inhibition was inactive: -6.31%.
`COC(=O)C1(C)COP(=O)(N2CCCCCC2)OC1` (stereo not given) was tested, and the inhibition was inactive: 7.41%.
With `CC(C)c1ccc(OP(=O)(Nc2ccccn2)Oc2ccccc2F)cc1` (stereo not given) the inhibition was inactive: -6.43%.
For `ClCCSc1nnc(-c2cccnc2)o1`, the inhibition was inactive: -6.31%.
For `Cc1ccc2nc3c(c(C)c2c1)CC(C(Cl)Cl)S3` (stereo not given), the inhibition was inactive: -1.95%.
In the case of `Cc1ccc(OP(=O)(Nc2ccc([N+](=O)[O-])cn2)Oc2ccc(C)cc2)cc1`, the inhibition is reported as inactive: 11.4%.
In the case of `[N-]=[N+]=NC1CCCCC1NC(=O)c1cc([N+](=O)[O-])cc([N+](=O)[O-])c1` (stereo not given), the inhibition is reported as inactive: -21.1%.
With `O=[N+]([O-])c1ccc(-c2cc([N+](=O)[O-])c(O)c([N+](=O)[O-])c2)cc1` the inhibition was inactive: -10.7%.
For `COc1cc(C(=O)NCC2(N3CCOCC3)CCCCC2)ccc1OCC(C)C`, the inhibition was inactive: 37.7%.
For `C[As](=O)(O)c1cccc(C(=O)O)c1`, the inhibition was inactive: -6.29%.
With `O=[As](O)(c1ccc(O)cc1)c1ccccc1O` the inhibition was inactive: -1.55%.
`COc1ccc(N/C(=N/P(=O)(N2CCOCC2)N2CCOCC2)N2CCOCC2)cc1` was tested, and the inhibition was inactive: -2.6%.
With `O=[N+]([O-])c1cc(Oc2ccc([N+](=O)[O-])cc2C(F)(F)F)cc([N+](=O)[O-])c1` the inhibition was inactive: -35.6%.
`COc1cc(I)ccc1[As](=O)(O)O` was tested, and the inhibition was inactive: -4.64%.
For `COc1ccc2nc(NP(=O)(c3ccccc3)c3ccccc3)sc2c1`, the inhibition was inactive: 1.5%.
For `O=P1(N(CCCl)CCCl)OCCCN1CCCl` (stereo not given), the inhibition was inactive: 1.12%.
`O=P1(N(CCCl)CCCl)Nc2ccccc2N1` was tested, and the inhibition was inactive: -11.5%.
With `Cc1cc(=O)[nH]c(N[N+](=O)[O-])n1` the inhibition was inactive: 2.41%.
`O=C(OC1CN2CCC1CC2)C12CC3CC(CC(C3)C1)C2` (stereo not given) was tested, and the inhibition was inactive: -5.93%.
For `Cc1c2c(nc3ccccc13)SC(C(Cl)Cl)C2` (stereo not given), the inhibition was inactive: -5.04%.
For `CCC(C)N(CC(C)C)C(=S)SC(NC(C)=O)C(Cl)(Cl)Cl` (stereo not given), the inhibition was inactive: -0.665%.
`CCOC(=O)c1ccc(NC(=O)C(C)(CCl)SC)cc1` (stereo not given) was tested, and the inhibition was inactive: -2.08%.
With `CSc1ccc(Nc2c([N+](=O)[O-])cc([N+](=O)[O-])cc2[N+](=O)[O-])cc1` the inhibition was inactive: 3.77%.
With `O=C(OC1CN2CCC1CC2)c1cccc([N+](=O)[O-])c1` (stereo not given) the inhibition was inactive: -6%.
With `O=C(Nc1ccncc1[N+](=O)[O-])c1ccc([N+](=O)[O-])cc1[N+](=O)[O-]` the inhibition was inactive: -3.36%.
For `O=C(COc1ccccc1)OC1CN2CCC1CC2` (stereo not given), the inhibition was inactive: -6.37%.
`O=C(O)C(=O)c1ccc(N(CCCl)CCCl)cc1` was tested, and the inhibition was inactive: 0.0548%.
`COC(=O)C1(C)COP(=O)(N2CCCC2)OC1` (stereo not given) was tested, and the inhibition was inactive: 3.44%.
`COP1(=S)c2c(C)nn(CCC#N)c2N=C(c2ccc(F)cc2)N1C` (stereo not given) was tested, and the inhibition was inactive: 8.73%.
With `O=[N+]([O-])c1ccc(Nc2ccc(Oc3ccc([N+](=O)[O-])cc3[N+](=O)[O-])cc2)c([N+](=O)[O-])c1` the inhibition was inactive: 9.52%.
`Cc1cc(SC(NC=O)C(Cl)(Cl)Cl)ncn1` (stereo not given) was tested, and the inhibition was inactive: -19.1%.
In the case of `O=P(Nc1ccccn1)(c1cccc2ccccc12)c1cccc2ccccc12`, the inhibition is reported as inactive: 2.86%.
In the case of `CCOC(=O)Nc1cccc([As](=O)(O)O)c1`, the inhibition is reported as inactive: -7.47%.
With `Cc1cc(SC(NC(=O)c2ccccc2)C(Cl)(Cl)Cl)nc(C(C)C)n1` (stereo not given) the inhibition was inactive: -17.1%.
`CCCCOc1ccc(C(=O)NCC2(N3CCCCC3)CCCCC2)cc1OC` was tested, and the inhibition was inactive: -1.59%.
`COP(=O)(OC)N1CC1c1ccccc1` (stereo not given) was tested, and the inhibition was inactive: -17.9%.
For `CC1CCNP(=O)(N(CCCl)CCCl)O1` (stereo not given), the inhibition was inactive: -6.52%.
`O=C(O)C(O)c1ccc(N(CCCl)CCCl)cc1` (stereo not given) was tested, and the inhibition was inactive: 0.13%.
For `CCOC(=O)Nc1ccc([As](=O)(O)O)c(O)c1`, the inhibition was inactive: -0.938%.
For `COC(=O)C1(C)COP(=O)(Nc2ccccc2)OC1` (stereo not given), the inhibition was inactive: -9.18%.
`O=[N+]([O-])c1cccc(NC2=NCC(CBr)S2)c1` (stereo not given) was tested, and the inhibition was inactive: 5.06%.
For `O=C(O)CNc1ccc([As](=O)(O)O)cc1`, the inhibition was inactive: 8.37%.
With `CC(C)(C)C(=O)NC(Sc1ccncn1)C(Cl)(Cl)Cl` (stereo not given) the inhibition was inactive: 4.02%.
With `O=[N+]([O-])c1ncn(CCn2ncnc2[N+](=O)[O-])n1` the inhibition was inactive: -6.17%.
With `O=C(Nc1cc([As](=O)(O)O)ccc1O)c1ccccc1` the inhibition was inactive: -12.7%.
With `O=P1(N(CCCl)CCCl)OCCCS1` (stereo not given) the inhibition was inactive: -2.55%.
In the case of `CN(C)C(=O)OCCc1n(C)cc[n+]1C`, the inhibition is reported as inactive: -8.79%.
For `CC(C)c1nc(Nc2ccccc2)n(P(=O)(N(C)C)N(C)C)n1`, the inhibition was inactive: 19.9%.
